Reference: US20160199369A1, “Extruded Immediate Release Abuse Deterrent Pill” (priority 2013, published 2016)

Tests used:
[1] = General solubility of exemplary components; assay type: physicochemical; conditions: 200 proof ethanol, filtered through 0.22 micrometer PTFE filter
Excerpt: The following table lists the relative solubility of exemplary components of a formulation. A number of different dyes are listed along with their solubility information taken from the various literature sources and tested experimentally (200 proof ethanol and filtered through a 0.22 micrometer PTFE filter).

[2] = relative solubility, yes/no; cited from earlier work

O=S(=O)([O-])c1ccc(N=Nc2c(O)ccc3cc(S(=O)(=O)[O-])ccc23)cc1.[Na+].[Na+] [FD&C Yellow #6]
Yes: Alcohol Solubility (tested) [1] | Alcohol Solubility (Literature) [2] | Water Solubility [2]
